## Binding of CDR-mutated scFvs to a peptide of the spike HR2 region

All variants were tested on one target, the spike HR2 peptide PDVDLGDISGINAS (SARS-CoV-2).

The variants keep the light chain, the linker and the frameworks of Ab-14 (scFv order VH, three GGGGS repeats, VL).
VH: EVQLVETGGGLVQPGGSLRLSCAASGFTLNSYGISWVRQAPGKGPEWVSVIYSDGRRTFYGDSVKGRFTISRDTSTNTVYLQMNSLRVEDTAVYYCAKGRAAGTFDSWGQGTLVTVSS
VL: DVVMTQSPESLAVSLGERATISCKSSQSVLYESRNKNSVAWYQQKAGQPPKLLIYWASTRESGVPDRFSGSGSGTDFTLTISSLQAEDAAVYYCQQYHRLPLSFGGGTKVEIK

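Phage display of a naive human antibody library on the peptide gave the parent. Designed CDR sequences, proposed from the first random library and measured here. Their group label is 14H_En_HC (En: ensemble of fine-tuned language models; HC: hill climbing; a sequence that several methods proposed may carry one label only). Affinity was read by AlphaSeq, a pooled yeast mating assay with surface-displayed partners. Pairs that bind mate more often; barcode pairs of the diploids are counted by sequencing. Scores were corrected for input abundance and mapped to Kd with protein pairs of known affinity run in the same pool. Mating was done six times.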

Each variant is given by its three heavy chain CDRs, as the data file delimits them; those of the parent are GFTLNSYGIS, VIYSDGRRTFYGDSVK, GRAAGTFDS. Numbers give log10(Kd / nM), so 0 is 1 nM and 3 is 1 µM. Smaller is tighter. The mean shown is taken over the replicates in which the pair was detected. "n.d." marks a missing value. The strain was present, yet no cells mated with the target were sequenced in that replicate, which points to weak or no binding. The authors averaged sequences with at least three values out of six and counted those with two or fewer as poor binders. A sequence measured in both rounds can read differently, since the two assays cover different ranges. Background: pairings of all heavy chain designs with three empty control strains gave a value in 1% of cases (median 2.08, 5th percentile 0.84). Values in that range, when seen in few replicates, are hard to tell from nonspecific mating. The control count says in how many pairings with the empty strains this scFv gave a signal, with their mean in brackets.

| CDR-H1 | CDR-H2 | CDR-H3 | log10 Kd, replicates | log10 Kd (nM), mean | control signals |
|---|---|---|---|---|---|
| GFDLNEYGIS | VIYADGSRTFYSDSVK | GNQAGTFDV | -0.54 / -0.68 / -0.70 / -0.82 / -0.70 / -0.61 | -0.67 | 0/18 |
| GFDLNEYGIS | VIYADGRRTFYSDSVK | GENGGTFDS | 0.83 / 0.68 / 0.72 / 0.36 / 0.66 / 0.60 | 0.64 | 0/18 |
| GFDLNEYGIS | VIYADGVRTFYSDSVK | GEIAGTFDV | n.d. / 1.05 / 1.16 / 2.75 / 1.62 / n.d. | 1.65 | 0/18 |
| GFDLNEYGIS | VIYADGQRTFYADSVK | GEVAGTFVL | -0.19 / -0.56 / -0.81 / -0.77 / -0.64 / -0.64 | -0.60 | 0/18 |
| GFDLNEYGIS | VIYADGMRTFYIDSVK | GEAAGTFDM | -0.32 / -0.60 / -0.50 / -0.42 / -0.65 / -0.30 | -0.47 | 1/18 (1.44) |
| GFDLNEYGIS | VIYADGRRTAYSDSVK | GNVGGSFDV | -0.22 / 0.07 / -0.35 / -0.28 / -0.07 / -0.34 | -0.20 | 0/18 |
| GFDLNEYGIS | VIYADGRRTFYVDSVK | GKNAGTFDS | -0.51 / -0.61 / -0.62 / -0.76 / -0.54 / -0.40 | -0.57 | 0/18 |
| GFDLNEYGIS | VIYADGRRTQYIDSVK | GEIAGTFDL | 0.16 / -0.05 / -0.24 / 0.43 / 0.03 / -0.05 | 0.05 | 1/18 (1.35) |
| GFNLNEYGIS | VIYADGRRTFYSDSVK | GEAAGTFDV | -0.16 / -0.18 / -0.39 / -0.07 / -0.37 / -0.05 | -0.20 | 1/18 (2.14) |
| GFDLNEYGIS | VIYADGRRTAYTDSVK | GGAAGTFDL | -0.23 / -0.33 / -0.40 / -0.57 / -0.42 / -0.18 | -0.36 | 3/18 (2.40) |
| GFSLDEYGIS | VIYADGRRTAYQDDVK | GNVAGTFDS | 0.54 / 0.25 / 0.17 / 0.69 / -0.43 / 0.57 | 0.30 | 0/18 |
| GFDLNEYGIS | VIYADGRRTYYADSVK | GEAAGTFDV | -0.37 / -0.50 / -0.71 / -0.55 / -0.61 / -0.39 | -0.52 | 0/18 |
| GFDLNEYGIS | VIYADGRRTAYADSVK | GEAAGTFDA | 1.46 / n.d. / 1.31 / 1.60 / 2.44 / n.d. | 1.70 | 0/18 |
| GFNLNEYGIS | VIYADGRRTFYADSVK | GNNAGTFDV | -0.09 / 0.03 / -0.17 / 0.12 / 0.16 / -0.11 | -0.01 | 0/18 |
| GFGLDEYGIS | VIYADGRRTFYADSVK | GEAAGTFDI | -0.16 / -0.37 / -0.40 / -0.21 / -0.61 / -0.14 | -0.31 | 2/18 (3.74) |
| GFDLNEYGIS | VIYADGRRTAYADSVK | GNAAGTFDS | -0.37 / -0.64 / -0.39 / -0.73 / -0.26 / -0.24 | -0.44 | 0/18 |
| GFDLNEYGIS | VIYADGRRTQYIDSVK | GEAAGTFDE | 0.89 / 1.26 / 0.45 / 0.96 / 0.58 / 1.09 | 0.87 | 0/18 |
| GFDLNEYGIS | VIYADGRRTAYSDSVK | GNVAGTFVQ | 0.30 / -0.29 / -0.10 / -0.36 / -0.45 / -0.26 | -0.19 | 0/18 |
| GFDLEEYGIS | VIYADGRRTFYSDSVK | GEAAGTFDF | -0.35 / -0.48 / -0.46 / -0.04 / -0.33 / -0.22 | -0.31 | 0/18 |
| GFDLNEYGIS | VIYADGKRTFYSDSVK | GNAGGTFDT | -0.06 / -0.35 / 0.24 / 0.05 / -0.45 / 0.39 | -0.03 | 0/18 |
| GFDLNEYGIS | VIYADGRRTFYSDSVK | GTAAGTFDM | -0.07 / -0.42 / -0.44 / -0.57 / -0.70 / -0.04 | -0.37 | 0/18 |
| GFDLNEYGIS | VIYADGQRTFYSDSVK | GQTAGTFDV | -0.63 / -0.84 / -1.09 / -1.08 / -0.74 / -0.72 | -0.85 | 1/18 (1.47) |
| GFDLNEYGIS | VIYADGRRTFYVDSVK | GTNAGTFDS | -0.40 / -0.84 / -0.65 / -0.88 / -0.78 / -0.85 | -0.73 | 1/18 (1.69) |
| GFDLNEYGIS | VIYADGRRTFYADSVK | GKIAGTFDS | -0.41 / -0.57 / -0.70 / -0.83 / -0.73 / -0.50 | -0.62 | 0/18 |
| GFDLNEYGIS | VIYADGIRTQYIDSVK | GNEAGTFDT | -0.51 / -0.42 / 0.36 / -0.49 / -0.37 / 0.06 | -0.23 | 0/18 |
| GFDLNEYGIS | VIYADGRRTFYSDSVK | GNTAGTFDV | 0.77 / 0.20 / 0.74 / n.d. / 0.58 / 0.99 | 0.65 | 0/18 |
| GFDLNEYGIS | VIYADGSRTAYADSVK | GEAAGTFDQ | -0.60 / -0.77 / -0.73 / -0.86 / -0.56 / 0.23 | -0.55 | 0/18 |
| GFDLDEYGIS | VIYADGRRTYYADSVK | GTNAGTFDV | -1.04 / 0.44 / -0.37 / -1.37 / -1.04 / -0.06 | -0.57 | 0/18 |
| GFDLDEYGIS | VIYADGRRTFYADSVK | GRVAGTFDQ | -0.39 / -0.76 / -0.84 / -0.35 / -0.49 / -0.74 | -0.60 | 0/18 |
| GFDLNEYGIS | VIYADGKRTFYADSVK | GNNAGTFIS | 0.92 / 1.28 / n.d. / 1.63 / n.d. / n.d. | 1.27 | 0/18 |
| GFDLDEYGIS | VIYADGRRTFYTDSVK | GQNAGTFDQ | 1.07 / 0.58 / 0.93 / 0.58 / 0.81 / 0.83 | 0.80 | 1/18 (2.15) |
| GFDLNEYGIS | VIYADGRRTSYKDSVK | GENAGTFNV | n.d. / n.d. / n.d. / n.d. / n.d. / n.d. | n.d. | 0/18 |
| GFTLDEYGIS | VIYADGRRTAYTDSVK | GGNAGTFDV | -0.35 / -0.37 / -0.57 / -0.56 / -0.53 / -0.38 | -0.46 | 0/18 |
| GFDIDEYGIS | VIYADGQRTFYADSVK | GTNAGTFDV | -0.77 / -1.67 / -1.90 / -1.89 / -1.50 / -1.76 | -1.58 | 0/18 |
| GFDLNEYGIS | VIYADGMRTFYVDSVK | GETAGTFDV | -0.02 / -0.31 / -0.35 / -0.35 / -0.55 / -0.49 | -0.35 | 0/18 |
| GFDLNEYGIS | VIYADGKRTFYTDSVK | GNAAGTFDV | -0.14 / -0.12 / -0.44 / -0.11 / -0.32 / -0.13 | -0.21 | 1/18 (1.61) |
| GFDLNEYGIS | VIYADGRRTFYTDSVK | GQWAGTFDV | -0.61 / -0.64 / -0.80 / -1.02 / -0.80 / -0.65 | -0.75 | 1/18 (1.55) |
| GFDLEDYGIS | VIYADGMRTFYSDSVK | GEIAGTFDS | -0.19 / -0.13 / -0.31 / 0.11 / -0.38 / 0.03 | -0.15 | 3/18 (3.35) |
| GFTLDEYGIS | VIYADGQRTFYADSVK | GNVAGTFDQ | -0.31 / -1.01 / -1.32 / -1.24 / 0.01 / -0.88 | -0.79 | 1/18 (1.41) |
| GFDLNEYGIS | VIYADGLRTFYTDSVK | GEHAGTFDV | -0.36 / -0.52 / -0.91 / -0.58 / -0.73 / -0.34 | -0.57 | 1/18 (1.42) |
| GFDLNEYGIS | VIYADGRRTAYLDSVK | GEAAGTFDK | -0.73 / -0.53 / -0.42 / -0.52 / -0.86 / -0.56 | -0.60 | 0/18 |
| GFDINEYGIS | VIYADGVRTFYADSVK | GNQGGTFDL | 0.81 / 0.72 / 0.81 / 0.77 / 0.47 / 0.91 | 0.75 | 0/18 |
| GFDLNEYGIS | VIYADGRRTQYADSVK | GNEAGTFDS | 0.94 / -0.12 / -0.40 / -0.01 / 2.96 / -0.01 | 0.56 | 0/18 |
| GFDLNEYGIS | VIYADGRRTFYTDSVK | GQLAGTFDT | -0.43 / -0.38 / -0.37 / -0.41 / -0.45 / -0.33 | -0.39 | 0/18 |
| GFDIDEYGIS | VIYADGMRTFYTDSVK | GEAAGTFDT | 1.38 / 0.79 / 3.43 / 1.16 / 0.49 / 0.94 | 1.37 | 0/18 |
| GFDLNEYGIS | VIYADGKRTFYADNVK | GNVAGTFDQ | -0.13 / -0.62 / -0.49 / -0.68 / -0.61 / -0.29 | -0.47 | 0/18 |
| GFDLNEYGIS | VIYADGRRTFYTDDVK | GEFAGTFDL | -0.20 / 1.21 / 0.27 / -0.42 / 0.63 / -0.17 | 0.22 | 0/18 |
| GFNLDEYGIS | VIYADGRRTFYSDNVK | GEEAGTFDI | -0.33 / -0.21 / -0.81 / -1.16 / -0.90 / -0.43 | -0.64 | 0/18 |
| GFNLNEYGIS | VIYADGRRTFYTDDVK | GETAGTFDL | -0.49 / -0.46 / -0.57 / -0.59 / -0.71 / -0.55 | -0.56 | 0/18 |
| GFDLNEYGIS | VIYADGSRTFYSDSVK | GNQAGTFDT | -0.24 / -1.12 / -0.63 / -0.75 / -0.27 / -0.81 | -0.64 | 1/18 (1.59) |
| GFDLNEYGIS | VIYADGRRTFYADSVK | GQVAGTFIQ | -0.11 / -0.32 / -0.31 / -0.54 / -0.60 / -0.20 | -0.35 | 0/18 |
| GFDLNEYGIS | VIYADGRRTSYIDSVK | GNVAGTFDS | -0.11 / -0.12 / -0.37 / -0.14 / -0.28 / -0.24 | -0.21 | 0/18 |

Reference: Li et al. 2023, doi:10.1038/s41467-023-39022-2. File: FLAb, binding data.